# NALP1 inh – NALP1 inhibition; 280,000 compounds, 0.61% hits; S. cerevisiae NALP1/ASC/caspase-1 growth, X-gal OD620, 72 h; inhibition, % at 10 µM; in the data active means inhibition mostly above about 24%, no sharp cut-off; inactive means mostly below about 32%
# MC4R antagonist – blocks human MC4R cAMP signaling; AID 540295; P32245; 360,000 compounds, 0.48% hits; inhibition, % at 6.5 µM; MC4R-expressing cells, MTII-stimulated cAMP, LANCE TR-FRET;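 active means inhibition above its plate's cutoff, the mean of tested wells on that plate plus 3 SD, cut at about 29% in these data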;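 further: 0% = Melanotan II alone and 100% = Melanotan II plus saturating MCL0020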
#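 Test system: U2OS cells stably expressing human melanocortin 4 receptor (MC4R); also added: Melanotan II challenge; compound: 6.5 µM single dose; timing: 30-min compound preincubation, 1-h Melanotan II challenge, 1-h detection, room temperature; signal: Eu-cAMP/anti-cAMP TR-FRET, emission 671 nm; repeats: one well per compound, no replicates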
# UUG fidelity – modulators of yeast start codon fidelity, primary screen, whole organism, S. cerevisiae, single point, plate reader; S. cerevisiae UUG-firefly luciferase reporter, luminescence/redox ratio; activity score, % at 18.7 µM; actives 0.13% (n = 350,000); AID 602363, 2012;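 active = replicate mean at a twofold rise or more, about +100% in these data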;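 also: firefly luciferase made from a UUG start codon reports start codon fidelity; reporter light over untreated wells divided by growth signal over untreated wells; some hits fall short of that in this replicate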
# HDAC3 inh – inhibitors of human histone deacetylase 3 | O15379 | recombinant HDAC3, fluorogenic peptide/trypsin coupled, fluorescence | inhibition, % at 8.3 µM | 320,000 compounds, 0.15% hits; in the data active means inhibition above about 26%, passing the limit was not always enough
# ALR inh – human ALR oxidase inhibition via reduced H2O2; P55789; purified ALR, DTT oxidation, H2O2 HRP-luminol luminescence; inhibition, % (concentration not given with the values); 3.8% of 290,000 active; AID 485317;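 active = mean and each replicate at 75% or more; inconclusive = only one of the two met; inactive = neither met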;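 note: stock transfer was 7.5 nL into about 7.5 µL; 0% = neutral wells and 100% = wells with inactivated enzyme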
# MC4R ag barr – human MC4R agonism via beta-arrestin | activation, % at 8.9 µM | U2OS MC4R beta-arrestin complementation, luminescence; percent of melanotan II response, DMSO zero | 360,000 compounds, 0.98% hits | P32245 | AID 540308;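 active means activation above a per-plate cutoff, the mean activation of sample wells on that plate plus 3 SD, cut at about 8% in these data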
# MC4R barr ag – human MC4R beta-arrestin agonism confirmation; shares compounds with MC4R ag barr; U2OS MC4R beta-arrestin recruitment, luminescence; scaled DMSO 0%, Melanotan II 100%; activation, % at 8.9 µM; 2,400 compounds, 31% hits; AID 602192;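 active means mean activation across replicates above the hit cutoff set in the earlier primary screen, cut at about 8% in these data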
# MOR-DOR barr ag – activates mu-delta opioid heterodimer, MC4R agonist counter-screen; shares compounds with MC4R ag barr; U2OS PathHunter beta-arrestin, beta-gal luminescence; percent of deltorphin B response, DMSO zero; activation, % at 9.2 µM; 2,400 compounds, 5.8% hits; AID 602194;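 active means mean activation across replicates exceeds the hit threshold derived in the earlier primary screen, cut at about 18% in these data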;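 further: 100% = deltorphin B at 0.9 µM final and 0% = DMSO alone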
# Starred values were filed as active, the others as inactive; nt = no result given. Shown are actives, neighbours in structure and some others; about 4.2% of the full set was active somewhere.
# Screens by letter – A = NALP1 inh; B = MC4R antagonist; C = UUG fidelity; D = HDAC3 inh; E = ALR inh; F = MC4R ag barr; G = MC4R barr ag; H = MOR-DOR barr ag
> COc1ccc2cc(C(=O)NCc3ccco3)c(=Nc3ccc(C(=O)O)cc3)oc2c1
  A = 28; B = 9; C = -17; D = 2; E = 0; F = -3; G = nt; H = nt
> C[C@@H]1CN([C@@H](C)CO)C(=O)c2cccc(NC(=O)Nc3ccccc3)c2O[C@H]1CN(C)Cc1ccncc1
  A = nt; B = nt; C = -12; D = nt; E = nt; F = nt; G = nt; H = nt
> COc1ccc(NC(=O)c2ccc(F)c(F)c2)c2ccccc12
  A = 30; B = 5; C = -19; D = 5; E = nt; F = 21*; G = -1; H = 2
> COc1ccc(NC(=O)N(C)C[C@@H]2OCCCC[C@@H](C)Oc3ccc(N(C)C)cc3C(=O)N([C@@H](C)CO)C[C@H]2C)cc1
  A = nt; B = nt; C = 17; D = nt; E = nt; F = nt; G = nt; H = nt
> NC1=NC(=O)/C(=C/c2c(OS(=O)(=O)c3ccc(Cl)cc3)ccc3ccccc23)S1
  A = 23; B = 7; C = nt; D = -7; E = -19; F = 9.6*; G = 2; H = 5
> NC1=NC(=O)/C(=C/c2ccccc2OS(=O)(=O)c2ccccc2)S1
  A = 18; B = -3; C = -18; D = 2; E = -1; F = -3; G = nt; H = nt
> C[C@@H]1CCCCO[C@@H](CN(C)Cc2ccc3c(c2)OCO3)[C@H](C)CN([C@@H](C)CO)C(=O)c2cc(NC(=O)CCC(F)(F)F)ccc2O1
  A = nt; B = nt; C = 17; D = nt; E = nt; F = nt; G = nt; H = nt
> S=c1[nH]nc(-c2ccc(Cl)cc2)n1Cc1ccccc1
  A = -4; B = 6; C = -24; D = -5; E = 15; F = 1; G = nt; H = nt
> S=c1[nH]cc(-c2ccc(Cl)cc2)n1Cc1ccccc1
  A = 32; B = -2; C = -17; D = -3; E = 4; F = 19*; G = 3; H = 11
> CC1CC(C)(C)CC2(C1)NC(=O)N(CC(=O)OCc1ccc(Br)cc1)C2=O (stereo not drawn)
  A = nt; B = -1; C = -4; D = 11; E = -5; F = 14*; G = -1; H = 6
> O=C(CN1C(=O)NC2(CCCC2)C1=O)OCc1ccc(Br)cc1
  A = nt; B = 3; C = -8; D = 1; E = 0; F = -3; G = nt; H = nt
> CCc1ccc(C2CC(c3ccc(F)cc3)Nc3nc(N)nn32)cc1 (stereo not drawn)
  A = 31; B = 4; C = -19; D = -4; E = -7; F = 25*; G = 17*; H = 1
> CC(C)c1cn(CC[C@H]2CC[C@H](NC(=O)c3cccc(F)c3)[C@@H](CO)O2)nn1
  A = nt; B = nt; C = -5; D = nt; E = nt; F = nt; G = nt; H = nt
> CC(C)c1ccccc1NC(=O)Cn1c(/C=C/c2ccccc2)nc2ccccc21
  A = nt; B = nt; C = nt; D = -31; E = -3; F = nt; G = nt; H = nt
> O=C(Cn1c(C(=O)c2ccccc2)nc2ccccc21)c1ccc(Cl)cc1
  A = nt; B = -9; C = nt; D = nt; E = nt; F = 0; G = nt; H = nt
> Cc1ccc(NC(=O)Cn2c(/C=C/c3ccccc3)nc3ccccc32)cc1C
  A = 30; B = 14; C = -19; D = -9; E = nt; F = 17*; G = -1; H = nt
> Cc1ccc(C(=O)Cn2c(C(=O)/C=C/c3ccccc3)nc3ccccc32)cc1
  A = 13; B = 7; C = -26; D = -6; E = 2; F = 20*; G = 21*; H = 4
> O=C(Nc1ccc(Nc2ccccc2)cc1)c1cc([N+](=O)[O-])ccc1Cl
  A = 10; B = 0; C = -17; D = -7; E = 36; F = -1; G = nt; H = nt
> O=C(Nc1ccccc1Oc1ccccc1)c1cc([N+](=O)[O-])ccc1Cl
  A = 27; B = 12; C = -18; D = nt; E = nt; F = 14*; G = -1; H = 6
> COc1ccc(NC(=S)NCc2ccc3c(c2)OCO3)cc1
  A = 2; B = 4; C = -26; D = 2; E = -1; F = -1; G = nt; H = nt
> CC(C)c1ccc(NC(=S)NCc2ccc3c(c2)OCO3)cc1
  A = 10; B = 9; C = nt; D = 3; E = 0; F = 12*; G = 1; H = 6
> O=C(c1cccc(-c2ccc(O)cc2)c1)N1CCN(c2ccc(F)cc2)CC1
  A = 2; B = 9; C = nt; D = -4; E = -2; F = 13*; G = 4; H = 6
> CCN1C(=O)/C(=C\N2CCN(c3ccc(F)cc3)CC2)SC1=S
  A = 3; B = 1; C = -16; D = 2; E = -2; F = 19*; G = 2; H = 6
> C[C@@H]1CCCCO[C@H](CN(C)Cc2ccc(C(=O)O)cc2)[C@H](C)CN([C@H](C)CO)C(=O)c2cc(NC(=O)CCCN(C)C)ccc2O1
  A = nt; B = nt; C = -17; D = nt; E = nt; F = nt; G = nt; H = nt
> CSc1ccccc1NC(=O)Nc1cccc(Cl)c1Cl
  A = 11; B = -1; C = -2; D = 6; E = 1; F = 16*; G = 9.2*; H = 9
> CSc1ccccc1NC(=O)Nc1cccc(Cl)c1C
  A = 12; B = -7; C = nt; D = -3; E = -3; F = 3; G = nt; H = nt
> C[C@@H]1CN([C@@H](C)CO)C(=O)c2cccc(NC(=O)C3CC3)c2O[C@H]1CN(C)Cc1ccc(Cl)c(Cl)c1
  A = nt; B = nt; C = 10; D = nt; E = nt; F = nt; G = nt; H = nt
> O=C(Nc1ccc(N2CCCC2)cc1)c1cc(Cl)ccc1Cl
  A = 20; B = 3; C = -10; D = 10; E = -2; F = -1; G = nt; H = nt
> O=C(Nc1ccc(N2CCCC2)cc1)c1cccc(Cl)c1
  A = 13; B = -5; C = -43; D = -2; E = 23; F = 11*; G = 0; H = 11
> O=C(Nc1ccc(N2CCCC2)cc1)c1ccc(Br)cc1
  A = 21; B = 22; C = -29; D = 5; E = -4; F = 18*; G = 3; H = 4

# Complete entries from above:
# COc1ccc(NC(=S)NCc2ccc3c(c2)OCO3)cc1 as listed: NALP1 inh = 2; MC4R antagonist = 4; UUG fidelity = -26; HDAC3 inh = 2; ALR inh = -1; MC4R ag barr = -1; MC4R barr ag = nt; MOR-DOR barr ag = nt
# O=C(Nc1ccc(N2CCCC2)cc1)c1cccc(Cl)c1 as listed: NALP1 inh = 13; MC4R antagonist = -5; UUG fidelity = -43; HDAC3 inh = -2; ALR inh = 23; MC4R ag barr = 11*; MC4R barr ag = 0; MOR-DOR barr ag = 11

# Next part.
# Screens by letter – A = NALP1 inh; B = MC4R antagonist; C = UUG fidelity; D = HDAC3 inh; E = ALR inh; F = MC4R ag barr; G = MC4R barr ag; H = MOR-DOR barr ag
> CO[C@H]1CN(C)C(=O)c2cc(NC(=O)C3CC3)ccc2OC[C@@H](C)N(Cc2cccnc2)C[C@@H]1C
  A = nt; B = nt; C = -13; D = nt; E = nt; F = nt; G = nt; H = nt
> COc1ccc(/C=C2\SC(=S)N(CCC(=O)Nc3cccc(O)c3)C2=O)cc1
  A = 2; B = -3; C = -8; D = nt; E = nt; F = 21*; G = 3; H = 4
> COc1cc(/C=C2\SC(=S)N(CCC(=O)Nc3ccc(O)cc3)C2=O)cc(OC)c1OC
  A = 3; B = 7; C = 2; D = -4; E = -36; F = 1; G = nt; H = nt
> COc1ccc(O)c(/C=C2/SC(=S)N(Cc3ccccc3)C2=O)c1
  A = 10; B = -4; C = -16; D = 3; E = 3; F = 0; G = nt; H = nt
> COc1ccc(/C=C2\SC(=S)N(CCC(=O)Nc3ccc(C(=O)O)cc3)C2=O)cc1
  A = 3; B = 4; C = -5; D = 6; E = -10; F = -2; G = nt; H = nt
> COc1ccc(/C=C2\SC(=S)N(CCCC(=O)Nc3ccc(O)cc3)C2=O)cc1
  A = 31; B = 27; C = -17; D = 6; E = nt; F = 17*; G = 10*; H = 2
> COc1ccc(/C=C2/SC(=S)N(CCCC(=O)Nc3ccc(O)cc3)C2=O)cc1
  A = nt; B = 5; C = -11; D = -1; E = 12; F = 12*; G = 7; H = 4
> COc1ccc(/C=C2/SC(=S)N(Cc3ccccc3)C2=O)cc1O
  A = 19; B = 7; C = -8; D = 0; E = 4; F = 12*; G = 8; H = 5
> Cc1ccc(S(=O)(=O)Nc2ccc3c(c2)C(=O)N([C@@H](C)CO)C[C@H](C)[C@H](CN(C)C(=O)NC(C)C)O3)cc1
  A = nt; B = nt; C = -2; D = nt; E = nt; F = nt; G = nt; H = nt
> CC(=O)N(C)C[C@H]1Oc2ncc(C#CC3(O)CCCC3)cc2C(=O)N([C@H](C)CO)C[C@@H]1C
  A = nt; B = nt; C = 10; D = nt; E = nt; F = nt; G = nt; H = nt
> Cc1noc(C)c1S(=O)(=O)Nc1ccc2c(c1)C(=O)N([C@H](C)CO)C[C@H](C)[C@@H](CN(C)Cc1ccc(C(F)(F)F)cc1)O2
  A = nt; B = nt; C = -3; D = nt; E = nt; F = nt; G = nt; H = nt
> CC(C)(C)c1ccc(S(=O)(=O)NCCc2ccncc2)cc1
  A = -3; B = -1; C = -13; D = 4; E = -5; F = -2; G = nt; H = nt
> CC(C)(C)c1ccc(S(=O)(=O)NCCOCC(F)(F)C(F)F)cc1
  A = 16; B = -4; C = 3; D = 19; E = -3; F = 13*; G = 1; H = 13

# High-throughput results from PubChem.
